# Reference: US20040229872A1, “Substituted cyclohexane-1,4-diamine compounds with anti-diarrhea and peripheral analgesic activity” (Gruenenthal GmbH, priority 2001, published 2004)
# By UniProt entry, the sequences of proteins in these tests, tags left out.
# UniProt P35372, whole entry: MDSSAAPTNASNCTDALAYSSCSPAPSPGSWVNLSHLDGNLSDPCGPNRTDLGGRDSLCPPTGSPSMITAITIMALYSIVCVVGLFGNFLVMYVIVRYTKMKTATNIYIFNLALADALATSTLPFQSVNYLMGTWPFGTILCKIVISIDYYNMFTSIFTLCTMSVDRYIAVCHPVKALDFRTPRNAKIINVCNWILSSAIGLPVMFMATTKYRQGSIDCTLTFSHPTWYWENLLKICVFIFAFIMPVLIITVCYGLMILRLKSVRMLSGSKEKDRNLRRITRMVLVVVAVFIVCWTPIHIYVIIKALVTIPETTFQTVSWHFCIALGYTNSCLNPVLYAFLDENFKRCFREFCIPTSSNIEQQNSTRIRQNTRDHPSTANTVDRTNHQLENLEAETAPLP
# Legend:
# μ-opioid receptor = μ-opioid receptor (Homo sapiens, UniProt P35372); test: μ-opioid receptor binding, radioactive displacement assay
# mice = test: analgesia testing in the tail flick test in mice; conditions: 10.0 mg/kg i.v.
smiles,measurement,setting,value
CN(C)C1(c2ccccc2)CCC(NC(CCc2ccccc2)C(=O)O)CC1 (racemic),Ki,μ-opioid receptor; read-out: μ-Opioid Receptor Ki,0.8 nM
same,Ki,"μ-opioid receptor; read-out: μ-Opioid Receptor Ki, hydrochloride",140 nM
same,CNS Analgesia (tail flick),mice,10.0 = ineff.

# Read-outs that look alike come from different tables or passages of the source.
